Experimental data from patent US20240408072A1, “COMPOSITION FOR PREVENTING OR TREATING GRAVES' DISEASE COMPRISING COMPOUND CONTAINING AN IMIDAZOPYRIDINE STRUCTURE AS ACTIVE INGREDIENT” (ESGELBIO INC., priority 2021, published 2024).

Protein sequences, listed by entry. Tags and fused reporters are not part of them. Residues count along the entry.
UniProt P07202, 19-933 limits assumed: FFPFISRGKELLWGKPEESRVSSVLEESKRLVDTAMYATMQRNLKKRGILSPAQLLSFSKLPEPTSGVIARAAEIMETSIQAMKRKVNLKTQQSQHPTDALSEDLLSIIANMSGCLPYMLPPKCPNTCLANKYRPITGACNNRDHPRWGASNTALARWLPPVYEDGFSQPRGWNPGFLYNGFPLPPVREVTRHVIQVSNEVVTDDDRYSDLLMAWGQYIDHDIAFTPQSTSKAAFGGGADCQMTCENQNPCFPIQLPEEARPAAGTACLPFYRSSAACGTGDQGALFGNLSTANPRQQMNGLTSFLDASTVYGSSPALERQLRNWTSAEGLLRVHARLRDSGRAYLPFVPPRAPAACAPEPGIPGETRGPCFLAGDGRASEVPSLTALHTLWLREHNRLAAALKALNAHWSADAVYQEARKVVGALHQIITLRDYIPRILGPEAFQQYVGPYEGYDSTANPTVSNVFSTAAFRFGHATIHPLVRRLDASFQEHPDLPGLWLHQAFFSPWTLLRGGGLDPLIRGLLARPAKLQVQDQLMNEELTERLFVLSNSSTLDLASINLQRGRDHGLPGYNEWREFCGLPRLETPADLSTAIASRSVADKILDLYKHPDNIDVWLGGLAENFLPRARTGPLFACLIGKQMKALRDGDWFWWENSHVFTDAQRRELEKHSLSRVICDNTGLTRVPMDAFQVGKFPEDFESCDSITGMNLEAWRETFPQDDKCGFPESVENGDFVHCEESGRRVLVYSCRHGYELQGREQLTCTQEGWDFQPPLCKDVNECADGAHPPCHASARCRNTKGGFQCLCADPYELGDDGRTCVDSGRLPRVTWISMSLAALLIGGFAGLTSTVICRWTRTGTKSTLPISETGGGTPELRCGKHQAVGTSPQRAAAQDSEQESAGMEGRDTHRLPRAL
UniProt P05164, 49-745 limits assumed: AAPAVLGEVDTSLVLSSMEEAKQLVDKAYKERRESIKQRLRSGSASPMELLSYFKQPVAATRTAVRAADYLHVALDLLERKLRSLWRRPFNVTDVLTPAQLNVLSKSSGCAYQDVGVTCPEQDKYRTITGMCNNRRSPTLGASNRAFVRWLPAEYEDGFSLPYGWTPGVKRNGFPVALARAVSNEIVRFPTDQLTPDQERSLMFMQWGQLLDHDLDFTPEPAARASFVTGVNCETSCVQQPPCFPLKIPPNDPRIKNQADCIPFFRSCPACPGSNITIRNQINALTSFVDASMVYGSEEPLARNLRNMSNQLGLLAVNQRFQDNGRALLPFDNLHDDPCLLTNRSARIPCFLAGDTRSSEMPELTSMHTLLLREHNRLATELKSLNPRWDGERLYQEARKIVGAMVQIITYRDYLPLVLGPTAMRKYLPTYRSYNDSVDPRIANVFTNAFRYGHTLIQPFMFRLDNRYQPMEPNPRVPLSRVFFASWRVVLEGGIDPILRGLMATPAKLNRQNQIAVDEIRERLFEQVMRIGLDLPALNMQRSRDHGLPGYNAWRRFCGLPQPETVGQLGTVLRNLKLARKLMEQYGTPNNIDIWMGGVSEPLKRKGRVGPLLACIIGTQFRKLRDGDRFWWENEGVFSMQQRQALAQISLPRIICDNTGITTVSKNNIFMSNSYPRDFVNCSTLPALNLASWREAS

How the values were obtained:
Format in all cases: biochemical
thyroid peroxidase (TPO) = thyroid peroxidase (TPO) (Homo sapiens (Human), UniProt P07202); assay: Thyroid peroxidase (TPO) inhibition IC50; conditions: read-out: IC50 (uM) TPO; Table 3
LPO = LPO (Bos taurus, UniProt P80025); assay: LPO inhibition IC50; conditions: Table 3
Human MPO = Human MPO (Homo sapiens (Human), UniProt P05164); assay: Myeloperoxidase (MPO) inhibition IC50 screening; conditions: read-out: IC50 (uM) MPO; Table 3

Question: Which IC50 (thyroid peroxidase (TPO)) does the source give for COc1ccc2c(c1)c(-c1csc(NC(=O)C3CC(=O)OC3(C)C)n1)c(C)n2C (stereo not drawn) here?
Answer: 0.13 µM

Question: And the “IC50 (uM) LPO” value (LPO)?
Answer: n.s.

Question: And the IC50 (Human MPO)?
Answer: 1.83 µM
